Results: patent publication US11236106B2, “Cycloalkane-1,3-diamine derivative” (Daiichi Sankyo Company, Limited, priority 2018, dated 2022)

Key:
MOLM-13 cells [1] = assay: cells; conditions: Homo sapiens
MV-4-11 cells [2] = assay: cells; conditions: Homo sapiens
MV-4-11 cells [3] = assay: Antitumor activity in MV-4-11 cell subcutaneous transplant model (Experimental Example 3-4); format: in vivo, mice; conditions: Exp. Ex. 3-4, oral
Protocol: (§1) MV-4-11 cells were purchased from ATCC. The female FOX CHASE SCID C.B.17/Icr-scid/scidJcl mice were purchased from Claire Japan. […] The compound was administered as a suspension in 0.5% MC. For the compound-free group, 0.5% MC was administered as a solvent. The estimated individual tumor volume was measured from the day of the grouping to 32 days after the transplantation (test end date).
(§2) Tumor growth inhibitory rate %=(1−TVCt/TVCc)×100 TVC=(Individual tumor volume on the test end date)−(Individual tumor volume on the grouping date) TVCt: TVC mean value of the compound administration group TVCc: TVC mean value of the compound-free group

K562 cells = assay: cells; conditions: Homo sapiens
OCI-AML3 cells = assay: cells; conditions: Homo sapiens, OCI-AML-3, 168 h, read-out: GI50 (nM) Day 7
MV-4-11 cells [4] = conditions: Exp. Ex. 3-3, oral; for Estimated tumor volume (test end date) Mean ± S.E.: 31 days after transplantation
MV-4-11 cells [5] = assay: Antitumor activity in MV-4-11 cell subcutaneous transplant model (Experimental Example 3-2); format: in vivo, mice; conditions: Exp. Ex. 3-2, oral; for Estimated tumor volume (test end date) Mean ± S.E.: 34 days after transplantation
Protocol: as §1, with “34” for “32”
as §2

MOLM-13 cells [6] = conditions: read-out: GI50, cell growth inhibitory activity, MOLM-13, day 7, cultured 7 days, assigned by order and values, Hydrochloride
MV-4-11 cells [7] = conditions: read-out: GI50, cell growth inhibitory activity, MV-4-11, day 7, cultured 7 days, assigned by order and values, Hydrochloride
[8] = MOLM-13, 72 h, read-out: GI50 (μM) Day3 MOLM-13, MOLM-13, Day3
[9] = MOLM-13, 168 h, read-out: GI50 (μM) Day7 MOLM-13, MOLM-13, Day7
[10] = MV4-11, 72 h, read-out: GI50 (μM) Day3 MV4;11, MV4;11, Day3
[11] = MV4-11, 168 h, read-out: GI50 (μM) Day7 MV4;11, MV4;11, Day7
[12] = K562, 72 h, read-out: GI50 (μM) Day3 K562
[13] = K562, 168 h, read-out: GI50 (μM) Day7 K562
[14] = MOLM-13, 168 h, read-out: GI50, cell growth inhibitory activity, MOLM-13, day 7, MOLM-13 cells, cultured 7 days, assigned by order and values
[15] = MV4-11, 168 h, read-out: GI50, cell growth inhibitory activity, MV-4-11, day 7, MV-4-11 cells, cultured 7 days, assigned by order and values
[16] = K562, 168 h, read-out: GI50, cell growth inhibitory activity, K562, day 7
[17] = MOLM-13, 72 h, read-out: GI50, cell growth inhibitory activity, MOLM-13, day 3, MOLM-13 cells, cultured 3 days, assigned by order and values
[18] = MV4-11, 72 h, read-out: GI50, cell growth inhibitory activity, MV-4-11, day 3, MV-4-11 cells, cultured 3 days, assigned by order and values
[19] = K562, 72 h, read-out: GI50, cell growth inhibitory activity, K562, day 3

| Structure (SMILES) | GI50 (MOLM-13 cells [1]; [8]) [µM] | GI50 (MOLM-13 cells [1]; [9]) [µM] | GI50 (MV-4-11 cells [2]; [10]) [µM] | GI50 (MV-4-11 cells [2]; [11]) [µM] | GI50 (K562 cells; [12]) [µM] | GI50 (K562 cells; [13]) [µM] | GI50 (MOLM-13 cells [1]; [14]) [µM] | GI50 (MV-4-11 cells [2]; [15]) [µM] | GI50 (OCI-AML3 cells) [nM] | GI50 (K562 cells; [16]) [µM] | Tumor growth inhibitory rate (%) (MV-4-11 cells [4]; qdx17, 25 mg/kg/day) | Tumor growth inhibitory rate (%) (MV-4-11 cells [4]; qdx17, 50 mg/kg/day) | Tumor growth inhibitory rate (%) (MV-4-11 cells [4]; qdx17, 100 mg/kg/day) | further results |
| --- | --- | --- | --- | --- | --- | --- | --- | --- | --- | --- | --- | --- | --- | --- |
| COc1cc(-c2ccc(CN[C@H]3C[C@@H](O)[C@@H](N(C)c4ncnc5sc(CC(F)(F)F)cc45)C3)cc2)cnc1C.Cl [Example 60, (1R,2S,4R)-4-({[4-(5-methoxy-6-methylpyridin-3-yl)phenyl]methyl}amino)-2-{methyl[6-(2,2,2-trifluoroethyl)thieno[2,3-d]pyrimidin-4-yl]amino}cyclopentan-1-ol hydrochloride] | 0.614 | 0.0807 | 0.0776 | 0.0325 | 3.4 | 2.39 | – | – | – | – | – | – | – | Tumor growth inhibitory rate (%) (MV-4-11 cells [3]; qdx16, 25 mg/kg/day): 43%; Tumor growth inhibitory rate (%) (MV-4-11 cells [3]; qdx16, 50 mg/kg/day): 97%; Tumor growth inhibitory rate (%) (MV-4-11 cells [3]; qdx16, 100 mg/kg/day): 100% |
| COc1nc(N(C)[C@H]2C[C@@H](NCc3ccc(-c4cc(OC)c(OC)cn4)cc3)C[C@H]2O)c2cc(CC(F)(F)F)sc2n1 [Example 116, (1R,2S,4R)-4-({[4-(4,5-dimethoxypyridin-2-yl)phenyl]methyl}amino)-2-{[2-methoxy-6-(2,2,2-trifluoroethyl)thieno[2,3-d]pyrimidin-4yl](methyl)amino}cyclopentan-1-ol hydrochloride] | – | – | – | – | – | – | 0.0592 | 0.0133 | 46 | 1 | – | – | – | – |
| COc1cc(-c2ccc(CN[C@H]3C[C@@H](O)[C@@H](N(C)c4ncnc5sc(CC(F)(F)F)cc45)C3)cc2)cnc1C#N [Example 22, 5-[4-({[(1R,3R,4S)-3-hydroxy-4-{methyl[6-(2,2,2-trifluoroethyl)thieno[2,3-d]pyrimidin-4-yl]amino}cyclopentyl]amino}methyl)phenyl]-3-methoxypyridine-2-carbonitrile Hydrochloride] | 0.675 | 0.262 | 0.189 | 0.0971 | 1.37 | 0.925 | – | – | 217 | – | 27 | 99 | 100 | Estimated tumor volume (test end date) Mean ± S.E. (MV-4-11 cells [4]; qdx17, 25 mg/kg/day): 712 ± 82; Estimated tumor volume (test end date) Mean ± S.E. (MV-4-11 cells [4]; qdx17, 50 mg/kg/day): 9 ± 4; Estimated tumor volume (test end date) Mean ± S.E. (MV-4-11 cells [4]; qdx17, 100 mg/kg/day): 0 ± 0 |
| COc1cc(-c2ccc(CN[C@H]3C[C@@H](O)[C@@H](N(C)c4ncnc5sc(CC(F)(F)F)cc45)C3)cc2)cnc1OC.Cl [Example 67, (1R,2S,4R)-4-({[4-(5,6-dimethoxypyridin-3-yl)phenyl]methyl}amino)-2-{methyl[6-(2,2,2-trifluoroethyl)thieno[2,3-d]pyrimidin-4-yl]amino}cyclopentan-1-ol hydrochloride] | – | – | – | – | – | – | 0.13 | 0.044 | – | 2.36 | – | – | – | GI50 (MOLM-13 cells [1]; [17]): 1.42 µM; GI50 (MV-4-11 cells [2]; [18]): 0.0676 µM; Tumor growth inhibitory rate (%) (MV-4-11 cells [3]; qdx16, 25 mg/kg/day): 9%; Tumor growth inhibitory rate (%) (MV-4-11 cells [3]; qdx16, 50 mg/kg/day): 61%; Tumor growth inhibitory rate (%) (MV-4-11 cells [3]; qdx16, 100 mg/kg/day): 100%; GI50 (K562 cells; [19]): 4 µM |
| COc1cc(-c2ccc(CN[C@H]3C[C@@H](O)[C@@H](N(C)c4ncnc5sc(CC(F)(F)F)cc45)C3)cc2)nnc1OC [Example 25, (1R,2S,4R)-4-({[4-(5,6-dimethoxypyridazin-3-yl)phenyl]methyl}amino)-2-{methyl[6-(2,2,2-trifluoroethyl)thieno[2,3-d]pyrimidin-4-yl]amino}cyclopentan-1-ol Hydrochloride] | 0.224 | 0.04 | 0.0253 | 0.018 | > 5 | 3.47 | – | – | 39 | – | – | – | – | Tumor growth inhibitory rate (%) (MV-4-11 cells [5]; qdx18, 12.5 mg/kg/day): 33.0%; Tumor growth inhibitory rate (%) (MV-4-11 cells [5]; qdx18, 25 mg/kg/day): 81.9%; Tumor growth inhibitory rate (%) (MV-4-11 cells [5]; qdx18, 50 mg/kg/day): 100%; Tumor growth inhibitory rate (%) (MV-4-11 cells [5]; qdx18, 100 mg/kg/day): 100% |
| COc1nc(N(C)[C@H]2C[C@@H](NCc3ccc(-c4cc(OC)c(OC)nn4)cc3)C[C@H]2O)c2cc(CC(F)(F)F)sc2n1 [Example 27, (1R,2S,4R)-4-({[4-(5,6-dimethoxypyridazin-3-yl)phenyl]methyl}amino)-2-{[2-methoxy-6-(2,2,2-trifluoroethyl)thieno[2,3-d]pyrimidin-4-yl](methyl)amino}cyclopentan-1-ol Hydrochloride] | – | – | 0.0152 | 0.0123 | 3.37 | 2.1 | – | – | 24 | – | – | – | – | Tumor growth inhibitory rate (%) (MV-4-11 cells [5]; qdx18, 25 mg/kg/day): 75.8%; Estimated tumor volume (test end date) Mean ± S.E. (MV-4-11 cells [5]; qdx18, 25 mg/kg/day): 335 ± 42; Tumor growth inhibitory rate (%) (MV-4-11 cells [5]; qdx18, 50 mg/kg/day): 97.8%; Estimated tumor volume (test end date) Mean ± S.E. (MV-4-11 cells [5]; qdx18, 50 mg/kg/day): 30 ± 8; Tumor growth inhibitory rate (%) (MV-4-11 cells [5]; qdx18, 100 mg/kg/day): 100%; Estimated tumor volume (test end date) Mean ± S.E. (MV-4-11 cells [5]; qdx18, 100 mg/kg/day): 0 ± 0 |
| COc1cc(-c2ccc(CN[C@H]3C[C@@H](O)[C@@H](N(C)c4ncnc5sc(CC(F)(F)F)cc45)C3)cc2)cnc1F.Cl [Example 68, (1R,2S,4R)-4-({[4-(6-fluoro-5-methoxypyridin-3-yl)phenyl]methyl}amino)-2-{methyl[6-(2,2,2-trifluoroethyl)thieno[2,3-d]pyrimidin-4-yl]amino}cyclopentan-1-ol hydrochloride] | – | – | – | – | – | – | 0.0882 | 0.0207 | – | 2.85 | 0 | 42 | 97 | GI50 (MOLM-13 cells [1]; [17]): 1.93 µM; GI50 (MV-4-11 cells [2]; [18]): 0.0462 µM; GI50 (K562 cells; [19]): 4.93 µM |
| COc1nc(N(C)C2CC(NCC3CCC(c4cc(OC)c(OC)nn4)CC3)CC2O)c2cc(CC(F)(F)F)sc2n1 (single isomer, unassigned) [Example 128A, Hydrochloride] | – | – | – | – | – | – | – | – | – | – | – | – | – | GI50 (MOLM-13 cells [6]): 1450 nM |
| COc1nc(N(C)C2CC(NCC3CCC(c4cc(OC)c(OC)nn4)CC3)CC2O)c2cc(CC(F)(F)F)sc2n1 (single isomer, unassigned) [Example 128B, Hydrochloride] | – | – | – | – | – | – | – | – | – | – | – | – | – | GI50 (MOLM-13 cells [6]): 501 nM; GI50 (MV-4-11 cells [7]): 201 nM |
| CN(c1ncnc2sc(CC(F)(F)F)cc12)[C@H]1C[C@@H](NCc2ccc(-c3cccc4c3cnn4S(C)(=O)=O)cc2)C[C@H]1O [Example 23, (1R,2S,4R)-4-[({4-[1-(methanesulfonyl)-1H-indazol-4-yl]phenyl}methyl)amino]-2-{methyl[6-(2,2,2-trifluoroethyl)thieno[2,3-d]pyrimidin-4-yl]amino}cyclopentan-1-ol Hydrochloride] | 0.594 | 0.155 | 0.106 | 0.0584 | 1.55 | 0.586 | – | – | – | – | 37 | 97 | 100 | – |

Counter-ions that a name gives are not always drawn. Like-named read-outs stand apart in the source and are kept apart here.
